Legend:
[1] = biological target: T1, HEK-293 cells transfected with dox-inducible human wild type FGFR3 (Homo sapiens (Human), UniProt P22607); test: FGFR3 pERK cell assay; type: cell-based; details: HEK-293 dox-inducible FGFR3, 1 hour compound, 100 ng/ml FGF-acidic; maximum concentration 5 μM
Description: FGFR3 pERK Cell Assay: • HEK-293 cells transfected with dox-inducible human wild type FGFR3 (SEQ ID NO: 5) were plated in a collagen or poly-D-lysine coated 96 well flat bottom plates at 4×10^5 cells/well in complete DMEM medium containing 10% FBS and 1 μg/ml doxycycline and allowed to attach for 24 h at 37° C., 5% CO2. Cells were treated with compound using 1:3 serial dilutions with a maximum final concentration of 5 μM. Compound was incubated on cells for 1 hour at 37° C., 5% CO2. Cells were then stimulated with a final concentration of 100 ng/ml human FGF-acidic (R&D Systems Cat number 232-FA/CF) for 5 minutes at 37° C., 5% CO2. Medium was removed, and cells were lysed with lysis buffer containing phosphatase and protease inhibitors. Phospho ERK1/2 was measured using the Meso Scale Discovery sandwich assay (Meso Scale Discovery cat. no. K151DWD). The assay captures phospho ERK1/2 and detects with a sulfo-tagged total ERK1/2 antibody. The chemiluminescent signal was read on the Sector Imager Plate reader. 100 POC was determined using no test compounds and 0 POC was determined using a control compound. The POC values were fit to a 4-parameter logistic curve as a function of the concentration of the compound, and the IC50 value is the point where the curve crosses 50 POC.

The chains behind the UniProt entries cited, without tags or fusion partners. Residues count along the entry.
UniProt P22607, 23-806: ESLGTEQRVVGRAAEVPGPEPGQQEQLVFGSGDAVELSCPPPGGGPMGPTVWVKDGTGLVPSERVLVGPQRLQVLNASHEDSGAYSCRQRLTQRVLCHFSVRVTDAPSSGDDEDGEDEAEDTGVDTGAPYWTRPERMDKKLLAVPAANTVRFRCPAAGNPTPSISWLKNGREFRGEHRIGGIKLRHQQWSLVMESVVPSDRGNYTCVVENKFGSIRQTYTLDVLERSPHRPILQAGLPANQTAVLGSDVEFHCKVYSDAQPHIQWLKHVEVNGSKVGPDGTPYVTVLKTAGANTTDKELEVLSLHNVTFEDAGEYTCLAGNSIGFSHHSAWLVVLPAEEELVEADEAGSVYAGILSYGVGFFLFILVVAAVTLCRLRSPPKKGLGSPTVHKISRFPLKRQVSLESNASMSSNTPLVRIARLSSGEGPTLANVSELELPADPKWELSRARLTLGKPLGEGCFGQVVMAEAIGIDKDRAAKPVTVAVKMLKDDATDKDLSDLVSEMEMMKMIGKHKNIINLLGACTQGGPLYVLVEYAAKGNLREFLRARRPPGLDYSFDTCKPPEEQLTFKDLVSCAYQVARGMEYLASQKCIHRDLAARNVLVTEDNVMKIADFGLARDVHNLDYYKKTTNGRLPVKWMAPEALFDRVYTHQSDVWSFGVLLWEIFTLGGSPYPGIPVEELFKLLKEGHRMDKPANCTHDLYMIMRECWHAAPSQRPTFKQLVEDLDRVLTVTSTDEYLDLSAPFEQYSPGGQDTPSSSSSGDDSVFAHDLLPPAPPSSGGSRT

[2] = biological target: T1, HEK-293 cells transfected with dox-inducible human wild type FGFR3; test: FGFR3 pFGFR cell assay (ELISA); type: cell-based; details: HEK-293 dox-inducible FGFR3, 1 hour compound, 100 ng/ml FGF-acidic
Description: FGFR3 pFGFR Cell Assay: • HEK-293 cells transfected with dox-inducible human wild type FGFR3 (SEQ ID NO: 5) were plated in a collagen or poly-D-lysine coated 96 well flat bottom plates at 4×10^5 cells/well in complete DMEM medium containing 10% FBS and 1 μg/ml doxycycline and allowed to attach for 24 h at 37° C., 5% CO2. Cells were treated with compound using 1:3 serial dilutions with a top final concentration of 5 μM. Compound was incubated on cells for 1 hour at 37° C., 5% CO2. Cells were then stimulated with a final concentration of 100 ng/ml human FGF-acidic for 5 minutes at 37° C., 5% CO2. Medium was removed and cells were lysed with lysis buffer containing phosphatase and protease inhibitors. Phospho FGFR3 was measured by ELISA (R&D Systems cat DYC2719). The ELISA captures total FGFR3 and detects total phospho tyrosine. Optical density was measured for each well using a Versamax reader at a wavelength of 450 nm. 100 POC was determined using no test compounds and 0 POC was determined using a control compound. The POC values were fit to a 4-parameter logistic curve as a function of the concentration of the compound, and the IC50 value is the point where the curve crosses 50 POC.

C=CS(=O)(=O)N[C@H]1C[C@H](C(=O)N2CCC(n3cc(-c4cc(OC)c5c(C#N)cnn5c4)cn3)CC2)C1 [Example 194, N-((1r,3r)-3-(4-(4-(3-cyano-4-methoxypyrazolo[1,5-a]pyridin-6-yl)-1H-pyrazol-1-yl)piperidine-1-carbonyl)cyclobutyl) ethenesulfonamide] was tested, and the IC50 [1] was 58 nM and the IC50 [2] was 43 nM.
Compound C=CS(=O)(=O)N[C@H]1C[C@@H](C(=O)N2CCC(n3cc(-c4cc(OC)c5c(C#N)cnn5c4)cn3)CC2)C1 [Example 193, N-((1s,3s)-3-(4-(4-(3-cyano-4-methoxypyrazolo[1,5-a]pyridin-6-yl)-1H-pyrazol-1-yl)piperidine-1-carbonyl)cyclobutyl) ethenesulfonamide] has an IC50 [1] of 47 nM and an IC50 [2] of 53 nM.

Reference: patent US12180207B2 (ARRAY BIOPHARMA INC., priority 2018, dated 2024)
